{"source": "ChEMBL document CHEMBL2321726", "about": "“Identification of selective inhibitors for human neuraminidase isoenzymes using C4,C7-modified 2-deoxy-2,3-didehydro-N-acetylneuraminic acid (DANA) analogues” (J Med Chem, 2013)", "molecular_target": "T1, Sialidase-4 (Homo sapiens, UniProt Q8WWR8)", "T1 sequence (Q8WWR8 whole entry)": "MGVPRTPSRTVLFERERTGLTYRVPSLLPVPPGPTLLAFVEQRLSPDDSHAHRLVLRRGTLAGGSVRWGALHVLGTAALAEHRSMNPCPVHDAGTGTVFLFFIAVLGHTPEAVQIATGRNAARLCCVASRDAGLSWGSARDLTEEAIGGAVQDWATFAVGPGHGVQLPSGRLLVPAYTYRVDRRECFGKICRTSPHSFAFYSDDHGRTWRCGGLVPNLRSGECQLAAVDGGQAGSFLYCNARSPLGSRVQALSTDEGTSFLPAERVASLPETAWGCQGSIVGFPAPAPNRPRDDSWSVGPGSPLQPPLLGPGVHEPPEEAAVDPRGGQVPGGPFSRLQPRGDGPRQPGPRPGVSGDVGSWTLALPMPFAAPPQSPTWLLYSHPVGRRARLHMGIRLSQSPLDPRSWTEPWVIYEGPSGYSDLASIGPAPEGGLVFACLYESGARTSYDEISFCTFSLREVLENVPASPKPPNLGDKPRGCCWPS", "experiment": "Inhibition of human neuraminidase 4 using 4MU-NANA as substrate measured for every 30 seconds for 60 mins by fluorescence assay"}
{"compound": "CC(=O)N[C@H]1[C@H]([C@H](O)[C@H](O)CO)OC(C(=O)O)=C[C@@H]1O", "note": "[NEU5AC2EN]", "values": [{"measurement": "Ki", "result": 1, "unit": "µM"}]}
